According to PubChem BioAssay AID652257 (The Scripps Research Institute Molecular Screening Center, 2013):
Only a part is listed here, and it is no random draw. Some results for these compounds are left out of this collection, so the calls shown say nothing about other tests. The source made the active and inactive calls.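 Rule for the calls: active = inhibition above about 21% made by adding two undisclosed values (limit read from the data); inactive = the rest.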

Sequences of proteins named here, by UniProt entry; tags and fusion partners are left off.
UniProt Q99873, whole entry: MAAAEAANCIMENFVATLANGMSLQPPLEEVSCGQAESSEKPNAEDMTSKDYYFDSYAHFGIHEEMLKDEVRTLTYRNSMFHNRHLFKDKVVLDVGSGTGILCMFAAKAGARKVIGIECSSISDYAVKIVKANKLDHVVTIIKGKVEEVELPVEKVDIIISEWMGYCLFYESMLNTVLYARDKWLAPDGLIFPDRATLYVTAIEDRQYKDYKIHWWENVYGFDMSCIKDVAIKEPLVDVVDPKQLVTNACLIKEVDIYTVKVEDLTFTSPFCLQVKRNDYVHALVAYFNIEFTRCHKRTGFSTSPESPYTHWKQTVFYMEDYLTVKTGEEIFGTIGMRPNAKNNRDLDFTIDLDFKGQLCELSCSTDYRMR

What follows are compounds tested against Protein arginine N-methyltransferase 1 (Homo sapiens) (UniProt Q99873) (assay: PRMT1 methyltransferase inhibitors, primary screen, biochemical, fluorescence polarization (AID 652257)). Conditions: recombinant PRMT1, activity-based probe fluorescence polarization; at 2.79 µM; hits give high values.

| Structure (SMILES) | inhibition |
| --- | --- |
| O=C(OC1CN2CCC1CC2)C(CO)(c1ccccc1)c1ccccc1 (stereo unspecified) | inactive: 3.96% |
| COc1ccc(Br)c(C(=O)NCC2(N3CCCCC3)CCCCC2)c1 | inactive: 7.53% |
| C=C(C)C#CC(O)(C(=O)OC1CCN(C)CC1)c1ccccc1 (stereo unspecified) | inactive: 3.98% |
| CN(C)c1cccc(C(=O)NCC2(N(C)C)CCCCC2)c1 | inactive: -1.9% |
| O=C(OCCN1CCCC1)C(O)(c1ccccc1)c1ccccc1 | inactive: 1.57% |
| CC(C)Oc1ccc(C(=O)NCC2(N(C)C)CCCCC2)cc1 | inactive: 4.21% |
| CN(C)C1(CNC(=O)c2ccc(Br)cc2)CCCCC1 | inactive: 1.15% |
| COc1cc(C(=O)NCC2(N(C)C)CCCCC2)c([N+](=O)[O-])cc1OC | inactive: 1.69% |
| COc1ccc(Cl)cc1C(=O)NCC1(N(C)C)CCCCC1 | inactive: 14.9% |
| COc1cccc(C(=O)NCC2(N3CCCCC3)CCCCC2)c1 | inactive: 1.54% |
| O=C(NCC1(N2CCCCC2)CCCCC1)c1cccc(Cl)c1 | inactive: 0.6% |
| CN(C)c1ccc(C(=O)NCC2(N(C)C)CCCCC2)cc1 | inactive: -5.73% |
| CN(C)C1CCCC1OC(=O)C(O)(c1ccccc1)c1ccccc1 (stereo unspecified) | inactive: -2.16% |
| Cc1ccccc1C(=O)NCC1(N2CCCCC2)CCCCC1 | inactive: -5.12% |
| O=C(NCC1(N2CCCCC2)CCCCC1)c1cc(F)c(F)cc1Cl | inactive: 0.12% |
| C=CCN1CCN(CCOC(=O)C(O)(c2ccccc2)c2ccccc2)CC1 | inactive: -3.37% |
| O=C(NCC1(N2CCCCC2)CCCCC1)c1cccc(Br)c1 | inactive: 0.66% |
| CCN1CCCC(OC(=O)C2(O)c3ccccc3C=Cc3ccccc32)C1 (stereo unspecified) | inactive: 4.7% |
| Cc1cc(C(=O)NCC2(N3CCCCC3)CCCCC2)ccc1[N+](=O)[O-] | inactive: -0.08% |
| COc1ccc(C(=O)NCC2(N(C)C)CCCCC2)cc1 | inactive: -3.31% |
| O=C(NCC1(N2CCCCC2)CCCCC1)c1cc([N+](=O)[O-])ccc1Cl | inactive: -0.28% |
| CN1[C@@H]2CC[C@H]1CC(OC(=O)C(O)(c1ccccc1)c1ccccc1)C2 (stereo partly specified) | inactive: -1.88% |
| CC(C)N1C(=O)CC2(CCN(CCOC(=O)C(O)(c3ccccc3)c3ccccc3)CC2)C1=O | inactive: 1.59% |
| COc1cc(SC)ccc1C(=O)NCC1(N(C)C)CCCCC1 | inactive: -2.07% |
| CCN(CC)CC(C)C(C)OC(=O)C(O)(c1ccccc1)c1ccccc1 (stereo unspecified) | inactive: -2.32% |
| Cc1ccc(C(=O)NCC2(N3CCCCC3)CCCCC2)cc1 | inactive: 0.8% |
